According to patent US11413278B2, “Compounds and methods for promoting stress resistance” (priority 2015, dated 2022):

What was measured:
mTOR = mTOR inhibition (RPS6 phosphorylation status), In-Cell Western; assay type: cell-based, human; conditions: n=4
FOXO3 = experiment: qPCR analysis of FOXO3-regulated genes; assay type: cell-based; conditions: Homo sapiens
Procedure: (§1) For qPCR analysis, WI-38 cells were treated with small molecules (at 10 μM) (biological quadruplicates) for 24 hrs and processed for RNA isolation and reverse transcription (RT) with the Cells-to-Ct Kit (Life Technologies), following manufacturer's instructions. RT products were diluted with H2O and used for qPCR analysis on an ABI 7300 system (Life Technologies) (technical triplicates). Relative expression levels of target genes were normalized to the genes B2M, PPIA and GAPDH. To knock down the expression of FOXO3 or NRF2, WI-38 cells were transfected, using the RNAiMAX reagents (Life Technologies), with siRNA oligos (at 10 nM final concentration, 10 ml culture medium) for FOXO3 (Life Technologies) or NRF2 (Integrated DNA Technologies) on 10-cm petri dishes for 36 hrs, and then detached and aliquoted onto 96-well (for qPCR analysis) or 384-well plates (for H2O2-stress treatment). ˜24 hrs later, small molecules were introduced and incubated with cells for 24 hrs. Cells were then either processed with the Cells-to-Ct Kit to prepare RT products for qPCR analysis or subjected to H2O2 (700 μM) for 3 hrs and assayed for viability. The knockdown efficiency of FOXO3 or NRF2 was checked at 36 hrs post-transfection and at the end as well.
(§2) For qPCR analysis, WI-38 cells were treated with small molecules (at 10 μM) (biological quadruplicate) for 24 hrs and processed for RNA isolation and reverse transcription (RT) with the Cells-to-Ct Kit (Life Technologies), following manufacturer's instructions. RT products were diluted with H2O and used for qPCR analysis on a LightCycler 480 system (Roche) (technical triplicates). Relative expression levels of target genes were normalized to the genes B2M, PPIA and GAPDH. To knock down the expression of FOXO3 or NRF2, WI-38 cells were transfected with siRNA oligos (at 10 nM final concentration) for FOXO3 (Life Technologies) or NRF2 on 10-cm petri dish for 36 hrs, and then detached and aliquoted onto 96-well plates. ˜24 hrs later, small molecules were introduced and incubated with cells for 24 hrs. Cells were then processed with the Cells-to-Ct Kit to prepare RT products for qPCR analysis. The knockdown efficiency of FOXO3 or NRF2 was checked at 36 hrs post-transfection and at the end as well.
Many perturbations that increase lifespan and stress resistance in animals do so in a FOXO-dependent fashion (Kenyon, 2010c). Humans have several FOXO genes, but FOXO3, which promotes stress resistance in mammalian cell culture (Kops et al., 2002; Nemoto and Finkel, 2002; Tran et al., 2003), is the one that has been linked to exceptional longevity in humans (Anselmi et al., 2009; Flachsbart et al., 2009; Li et al., 2009; Pawlikowska et al., 2009; Soerensen et al., 2010; Willcox et al., 2008). FOXO1, in contrast, appears to be responsible for some symptoms of diabetes in mouse models (Cheng and White, 2011). For this reason, applicants have focused on analyzing potential ability of our small molecules to activate FOXO3. […] Another 4 molecules (Gr-7A, Gr-7C, O12 and O23) could induce robust expression (greater than 1.5-fold) of at least 2 FOXO3 target genes.

C. elegans = assay type: in vivo, Caenorhabditis elegans
[1] = tested on: human dermal fibroblast (HDF) primary cells; experiment: H2O2-resistance in primary human dermal fibroblasts; assay type: cell-based
WI-38 cells [2] = experiment: MMS resistance assay; assay type: cell-based; conditions: Homo sapiens, 12 h, normalized ATP measurement
Procedure: (§3) For many stress conditions tested previously, one significant correlation to longevity is the cellular resistance to H2O2 or CdCl2. Applicants then tested these small molecules, at five different final concentrations (0.25 μM to 20 μM), for cadmium and MMS resistance in WI-38 cells.
(§4) The setups on 384-well plates and incubation times were the same as for H2O2 until the time of incubation with the stressors, which was 12 hours for both cadmium and MMS assays. Applicants tested several conditions, including conditions used to assay fibroblasts from long-lived animals (Salmon et al., 2005). These conditions produced better results with the positive controls (KEAP1 and AKT1 siRNAs) in the MMS assay. Thus, for MMS, the cells were shifted from growth media—OptiMEM+10% FBS, to DMEM (Gibco)+2% BSA (no serum) just before adding small molecules, which occurred 24 hours before MMS addition.
(§5) Isolated small molecules were tested for MMS and cadmium resistance twice in two independent assays. Each small molecule was analyzed at five different concentrations (0.25 μM to 20 μM final concentration), with technical triplicates for each dose. Data were analyzed using a global variance t-test.

NRF2 = experiment: qPCR analysis of NRF2-regulated genes; assay type: cell-based; conditions: Homo sapiens
Procedure: as §1, §2
NRF2/SKN-1, the oxidative stress and xenobiotic phase 2 detoxification protein, can extend animal lifespan (Sykiotis and Bohmann, 2008; Tullet et al., 2008). Applicants analyzed these small molecules for their ability to increase the expression of NRF2-regulated genes, including HMOX1 (heme oxygenase (decycling) 1; anti-oxidant), NQO1 (NAD(P)H dehydrogenase, quinone 1; phase 2 detoxification enzyme), GCLC (glutamate-cysteine ligase, catalytic) and GSTM1 (glutathionine S transferase) (Hur and Gray, 2011; Suzuki et al., 2013).

WI-38 cells [3] = conditions: normalized ATP measurement
WI-38 cells [4] = experiment: CdCl2 (cadmium) resistance assay; assay type: cell-based; conditions: Homo sapiens, 12 h, normalized ATP measurement
Procedure: as §3, §4, §5

SMILES: Oc1ccccc1-c1noc(-c2ccccc2O)n1 [O27]
- Exp. 2, normalized reduction in p-RPS6/RPS6 ratio (mTOR; Exp. 2, at 10 μM, In-Cell Western): ~30% (−), at 10 μM
- Exp. 3, normalized reduction in p-RPS6/RPS6 ratio (mTOR; Exp. 3, In-Cell Western): ~86% (−), at 20 μM
- fold induction at 10 µM (FOXO3; 24 h, Assay 10(m), at 10 uM, qPCR, read-out: Induction of FOXO3-regulated genes: SESN1 normalized fold-change): 1.54
- fold induction at 10 µM (FOXO3; WI-38, 24 h, read-out: SESN1 expression): > 1.5
- fold induction at 10 µM (FOXO3; 10 μM, 24 hrs, WI-38 cells, qPCR, normalized to B2M, n = 4, read-out: SESN1 expression, normalized fold change (FOXO3-regulated gene)): 1.54
- fold induction at 10 µM (FOXO3; WI-38 cells, 10 μM, 24 hrs, n=4, qPCR normalized by B2M, read-out: DDB1 Normalized fold change): 1.05
- fold induction at 10 µM (FOXO3; WI-38 cells, 10 μM, 24 hrs, n=4, qPCR normalized by B2M, read-out: GADD45A Normalized fold change): 1.46
- fold induction at 10 µM (FOXO3; WI-38 cells, 10 μM, 24 hrs, n=4, qPCR normalized by B2M, read-out: SESN1 Normalized fold change): 1.54
- fold induction at 10 µM (FOXO3; fold change, qPCR, WI-38 cells, 10 μM, 24 hrs, read-out: Summary of effects on FOXO3-regulated genes: SESN1): 1.54
- fold induction at 10 µM (FOXO3; qPCR, WI-38 cells, 10 μM, n=4, 24 hrs, normalized by B2M, read-out: CAT Normalized fold change): 1.13
- fold induction at 10 µM (FOXO3; qPCR, WI-38 cells, 10 μM, n=4, 24 hrs, normalized by B2M, read-out: SOD2 Normalized fold change): 1.15
- fold induction at 10 µM (FOXO3; qPCR, WI-38 cells, 10 μM, n=4, 24 hrs, normalized by B2M, read-out: TXNIP Normalized fold change): 0.882
- N = H2O2-resistance in woms (C. elegans; score): 0
- L = H2O2-resistance in worms (C. elegans; summary score): 0
- fold induction at 10 µM ([1]; Experiment 1, HDF cells, read-out: Experiment 1, HDF cells (under H2O2 stress treatment), at 10 uM (fold change)): 182
- fold induction at 10 µM ([1]; Experiment 2, HDF cells, read-out: Experiment 2, HDF cells (under H2O2 stress treatment), at 10 uM (fold change)): 46.1
- fold induction at 10 µM (WI-38 cells [2]; Exp. 1, WI-38 cells, read-out: Exp. 1, under MMS stress treatment, at 10 uM (fold change)): 0.74
- fold induction at 10 µM (WI-38 cells [2]; Exp. 2, WI-38 cells, read-out: Exp. 2, under MMS stress treatment, at 10 uM (fold change)): 2.45
- fold induction at 10 µM (NRF2; 24 h, Assay 12(o), at 10 uM, qPCR, read-out: Induction of NRF2-regulated genes: HMOX1 normalized fold-change): 1.71
- fold induction at 10 µM (NRF2; rounded fold change, WI-38 cells, 10 μM, 24 hrs (RP11 for Gr-1D, RP29 for Gr-4D), read-out: Summary of effects on NRF2-regulated genes: HMOX1): 1.71
- fold induction at 10 µM (NRF2; 10 μM, 24 hrs, WI-38 cells, qPCR, normalized to B2M, n = 4, read-out: HMOX1 expression, normalized fold change (NRF2-regulated gene)): 1.71
- fold induction at 10 µM (NRF2; WI-38 cells, 10 μM, 24 hrs, n=4, qPCR normalized by B2M, read-out: GCLC Normalized fold change): 1.25
- fold induction at 10 µM (NRF2; WI-38 cells, 10 μM, 24 hrs, n=4, qPCR normalized by B2M, read-out: GSTM1 Normalized fold change): 1.14
- fold induction at 10 µM (NRF2; WI-38 cells, 10 μM, 24 hrs, n=4, qPCR normalized by B2M, read-out: HMOX1 Normalized fold change): 1.71
- fold induction at 10 µM (NRF2; WI-38 cells, 10 μM, 24 hrs, n=4, qPCR normalized by B2M, read-out: NQO1 Normalized fold change): 1.33
- No H2O2 stress treatment, at 10 uM (fold change) (WI-38 cells [3]): 0.75 fold change
- fold induction at 10 µM (WI-38 cells [4]; Exp. 1, WI-38 cells, read-out: Exp. 1, under Cd2Cl2 stress treatment, at 10 uM (fold change)): 1.68
- fold induction at 10 µM (WI-38 cells [4]; Exp. 2, WI-38 cells, read-out: Exp. 2, under Cd2Cl2 stress treatment, at 10 uM (fold change)): 1.89

Read-outs that look alike come from different tables or passages of the source.
